Experimental data from publication PMC8252765, “Human Oxygenase Variants Employing a Single Protein Fe^II Ligand Are Catalytically Active” (Angewandte Chemie (International Ed. in English), 2021).

Columns and labels:
wt His6-AspH315-758 = system: T1, wt His6-AspH315-758; assay: Steady-state kinetics of wt AspH by SPE-MS; format: biochemical, human; settings: pH 7.5
T1 construct: Conditions: 0.1 μM wt His6-AspH315-758 using; His6 (N); made in house
Experimental: Supporting Figure S4. Kinetic parameters for wt AspH (continues on the following page). Turnover numbers (kapp) and Michaelis constants (Kapp) of wt AspH were determined in i ndependent triplicates for 2OG and […]
ammonium iron(II) sulfate hexahydrate (FAS, (NH 4)2Fe(SO 4)2·6H2O), both in the presence and absence of L - ascorbic acid (LAA ) monitoring the AspH-catalysed hydroxylation of the hFX-EGFD186-124-4Ser peptide (Supporting Figure S2a) by SPE-MS (SPE-MS parameters are given in Section 2 of the Supporting Information).
Note that the hFX-EGFD186-124-4Ser peptide substrate cannot be detected by SPE-MS at low concentrations, hampering an accurate determination of its wt AspH Km-value. Conditions: 0.1 μM wt His6-AspH315-758 using […]
variable concentrations of 2OG, FAS, and hFX-EGFD186-124-4Ser, respectively, in 25 mM HEPES (pH 7.5, 20° […]
C; note, to increase enzyme activity, 50 mM NaCl was added to the reaction buffer). Measurement times were normalized to the first sample injection analysed after the addition of the Enzyme Mixture to the Substrate Mixture (t = 0 s), by which time low levels of hydroxylation were manifest. Data are shown as the mean average of three independent runs (n = 3; mean ± standard deviation, SD). Turnover numbers (kapp) were calculated from the […]

H725A His6-AspH315-758 = biological target: T2, H725A His6-AspH315-758 (Homo sapiens, UniProt Q12797, H725A); assay: Steady-state kinetics of H725A AspH by SPE-MS; format: biochemical; settings: fold greater than that of wt AspH
T2 construct: containing H679A or H725A His6-AspH315-758 variant (0.2 μM); made in house; host or cells: E. coli BL21 (DE3), pET-28a(+)
T2 sequence (Q12797 315-758 H725A): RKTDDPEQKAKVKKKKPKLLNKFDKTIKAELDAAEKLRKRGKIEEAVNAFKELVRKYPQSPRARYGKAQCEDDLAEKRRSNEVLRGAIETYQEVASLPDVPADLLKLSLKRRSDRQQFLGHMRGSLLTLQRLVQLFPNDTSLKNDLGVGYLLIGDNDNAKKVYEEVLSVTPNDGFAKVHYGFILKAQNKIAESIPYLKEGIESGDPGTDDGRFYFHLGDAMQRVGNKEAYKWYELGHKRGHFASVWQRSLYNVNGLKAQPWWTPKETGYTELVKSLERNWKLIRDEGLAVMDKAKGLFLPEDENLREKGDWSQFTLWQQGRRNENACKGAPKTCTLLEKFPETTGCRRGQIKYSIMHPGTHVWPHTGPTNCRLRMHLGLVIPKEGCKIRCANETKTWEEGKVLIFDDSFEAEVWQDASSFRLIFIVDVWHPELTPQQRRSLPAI
Experimental: page 11: Supporting Figure S6. Kinetic parameters for […] AspH (continues on the following page). Turnover numbers (kapp or k ) and Michaelis constants (Kapp or K ) of the […] AspH-catalysed hydroxylation of […] peptide by SPE- MS (SPE-MS parameters are given in Section 2 of the Supporting Information). […] HEPES (pH 7.5, 20° C). […] Data are shown as the mean average of three independent runs (n = 3; mean ± standard deviation, SD). Turnover numbers (kapp or k ) were calculated from the maximum velocities (vapp or v ) values obtained, cat cat max max assuming ideal active site availability as supported by a reported active site titration of wt AspH.[4] (a) Time course of the […] AspH for Fe(II) in the absence of LAA; (c) Kapp of […] AspH for Fe(II) in the absence m of LAA. (d) Time course of the […] AspH for Fe(II) in the presence of LAA; (f) Kapp of […] AspH for Fe(II) in the m presence of LAA. […] AspH variant-catalysed hydroxylation reaction of […] (k) hydroxylation rates used to determine kinetic parameters of […] AspH for […]. […] AspH for […] peptide substrate. […]

O=C(O)CCC(=O)C(=O)O [2OG, 2‐oxoglutarate]
Kmapp (wt His6-AspH315-758): ≈ 1.1 μM and 1.1±0.4 μM
kcatapp (wt His6-AspH315-758): 0.31 ± 0.03 s⁻¹
Kmapp‐value for 2OG, H725A AspH relative to wt AspH (H725A His6-AspH315-758): ≈ 200 times

“And” between values parts separate entries of the source, which are not always exact repeats. Equal entries are not always repeated.
